Apparent affinities of Ab-14 variants for a coronavirus HR2 peptide

From the AlphaSeq antibody data of Li et al. 2023 (doi:10.1038/s41467-023-39022-2), copy in the FLAb collection.

Target: peptide PDVDLGDISGINAS, taken from heptad repeat 2 (HR2) of SARS-CoV-2 spike.

Parent: Ab-14, a human scFv built as VH, a (GGGGS)3 linker, VL. Only the CDRs of the heavy chain vary.
VH: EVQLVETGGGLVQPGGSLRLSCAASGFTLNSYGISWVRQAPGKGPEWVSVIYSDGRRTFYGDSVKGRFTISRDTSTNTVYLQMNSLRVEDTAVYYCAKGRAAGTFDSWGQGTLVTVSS
VL: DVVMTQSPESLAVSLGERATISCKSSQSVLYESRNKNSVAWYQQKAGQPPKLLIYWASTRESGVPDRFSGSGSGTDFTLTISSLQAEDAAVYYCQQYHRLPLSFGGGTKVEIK

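The starting antibody came from a phage panning campaign against this peptide. These sequences belong to a second round, designed from the earlier measurements on random variants of the parent. Their group label is 14H_En_Gen (En: ensemble of fine-tuned language models; Gen: genetic algorithm). The scFvs were displayed on barcoded MATa yeast, the peptide on MATalpha yeast. Binding brings cells together so that they mate, and sequencing counts the barcode pairs among the diploids. Each replicate has its own calibration line, from reference interactions of the BCL2 family. Mating was done six times.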

The parent's heavy chain CDRs are GFTLNSYGIS, VIYSDGRRTFYGDSVK, GRAAGTFDS; each variant's own CDRs replace them letter for letter.
Numbers give log10(Kd / nM), so 0 is 1 nM and 3 is 1 µM. Smaller is tighter.
Averages over replicates are reported, and they cover detected replicates only.
"n.d." means that the variant was in the library but no mating with the target was seen in that replicate; the authors take this as a sign of poor binding, and no number exists.
Nonspecific signal, from three strains lacking the peptide, appeared in 1% of pairings of all heavy chain designs, centred on 2.08 (5% of these signals below 0.84); values are not corrected for it. Also given: how often the same scFv was detected with the empty control strains, with their mean in brackets.

CDR-H1	CDR-H2	CDR-H3	replicates, log10 nM	mean log10 Kd (nM)	empty controls
GFDLDEYGIS	VIYADGMRTAYSDSVK	GENAGTFDT	-0.31 / 0.04 / -0.31 / -0.98 / -0.99 / -0.42	-0.49	0/18
GFDLDEYGIS	VIYADGMRKAYADSVK	GEVAGTFDV	0.55 / 1.39 / n.d. / 1.30 / 1.21 / n.d.	1.11	0/18
GFDLNEYGIS	VIYADGKRTAYADSVK	GNNAGTFDT	0.26 / 0.67 / -0.15 / 0.61 / -0.23 / -0.20	0.16	0/18
GFDLDEYGIS	VIYADGQRTAYSDSVK	GNEAGTFDV	-0.28 / -0.43 / -0.44 / -0.54 / -0.70 / -0.39	-0.46	0/18
GFDLNEYGIS	VIYADGQRTAYADSVK	GENAGTFDL	-0.21 / -0.17 / -0.10 / -0.30 / -0.06 / -0.10	-0.16	1/18 (1.25)
GFDLNEYGIS	VIYADGMRTAYADKVK	GANAGTFDV	-0.02 / -0.20 / -0.16 / -0.32 / -0.16 / 0.11	-0.12	0/18
GFDLNEYGIS	VIYADGRRTAYADNVK	GNVAGTFDT	0.56 / 0.31 / 0.14 / -0.21 / -0.06 / 0.30	0.17	0/18
GFDLNEYGIS	VIYADGRRTAYADSVK	GNVAGTFDV	-0.32 / -0.70 / -0.14 / -0.66 / -0.68 / -0.80	-0.55	1/18 (2.37)
GFDLNEYGIS	VIYADGMRTAYADSVK	GNEAGTFDV	-0.01 / 0.12 / -0.32 / -0.32 / -0.21 / -0.56	-0.21	0/18
GFDLNEYGIS	VIYADGKRTAYIDSVK	GENAGTFDV	0.42 / 0.90 / 0.23 / 0.44 / 0.39 / 0.45	0.47	1/18 (2.35)
GFDLNEYGIS	VIYADGMRTAYADTVK	GENAGTFDV	0.20 / 0.17 / -0.36 / -0.44 / -0.29 / 0.13	-0.10	0/18
GFDLNEYGIS	VIYADGKRTAYVDSVK	GENAGTFDQ	-0.14 / -0.25 / -0.53 / -0.44 / -0.35 / -0.12	-0.30	0/18
GFDLNEYGIS	VIYADGQRTAYSDSVK	GENAGTFDI	-0.17 / -0.05 / -0.27 / -0.69 / -0.88 / -0.08	-0.36	0/18
GFDLDEYGIS	VIYADGMRTAYTDDVK	GNVAGTFDL	-0.18 / -0.33 / 0.33 / -1.12 / -0.61 / -0.14	-0.34	0/18
GFDLDEYGIS	VIYADGMRTAYTDSVK	GEVAGTFDL	0.65 / -0.17 / 0.08 / 0.01 / 0.17 / 0.40	0.19	0/18
GFDLNEYGIS	VIYADGMRTAYADNVK	GEVAGTFDT	-0.63 / -0.46 / -0.59 / -0.56 / -0.87 / -0.44	-0.59	0/18
GFDLNEYGIS	VIYADGQRTAYADSVK	GVNAGTFDV	-0.57 / -0.77 / -0.89 / -0.72 / -1.12 / -0.51	-0.76	0/18
GFDLNEYGIS	VIYADGMRSAYADSVK	GENAGTFDL	0.06 / -0.18 / -0.18 / -0.19 / -0.35 / 0.05	-0.13	0/18
GFDLNEYGIS	VIYADGKRTFYADSVK	GNTAGTFDI	-0.69 / -0.54 / -0.51 / -0.85 / -0.88 / -0.66	-0.69	1/18 (1.71)
GFDLDEYGIS	VIYADGKRTAYADNVK	GNVAGTFDI	-0.31 / -0.86 / -0.44 / 0.58 / -0.96 / -0.76	-0.46	0/18
GFDLNEYGIS	VIYADGRRTAYIDSVK	GNVAGTFDT	-0.25 / -0.13 / -0.06 / -0.63 / -0.35 / -0.14	-0.26	0/18
GFDLNEYGIS	VIYADGMRSAYADSVK	GTNAGTFDV	-0.56 / -0.68 / -1.04 / -0.90 / -1.00 / -0.92	-0.85	0/18
GFDLNEYGIS	VIYADGMRTYYADSVK	GNNAGTFDI	0.99 / 1.17 / 1.18 / 0.71 / 0.50 / 0.78	0.89	0/18
GFDLNEYGIS	VIYADGVRTAYSDKVK	GNVAGTFDI	-0.23 / -0.55 / -0.72 / -0.78 / -0.69 / -0.29	-0.55	0/18
GFDLNEYGIS	VIYADGRRTAYADKVK	GNQAGTFDV	-0.16 / -0.60 / -0.30 / -0.40 / -0.17 / -0.20	-0.31	0/18
GFDLNEYGIS	VIYADGMRTFYADSVK	GTNAGTFDM	-0.54 / -0.70 / -0.28 / -0.59 / -0.55 / -0.28	-0.49	0/18
GFDLDEYGIS	VIYADGMRTAYSDSVK	GQNAGTFDL	-0.11 / -0.19 / -0.25 / -0.40 / -0.50 / -0.36	-0.30	0/18
GFDLDEYGIS	VIYADGMRTAYSDSVK	GNQAGTFDM	-0.24 / -0.27 / -0.94 / 0.15 / -0.48 / -0.62	-0.40	0/18
GFDLNEYGIS	VIYADGKRTAYADSVK	GGNAGTFDL	-0.18 / -0.24 / -0.66 / -0.73 / -0.50 / -0.27	-0.43	0/18
GFDLDEYGIS	VIYADGKRTAYSDKVK	GNVAGTFDV	0.07 / -0.22 / -0.26 / -0.44 / -0.46 / -0.08	-0.23	0/18
GFDLNEYGIS	VIYADGSRTAYADDVK	GNNAGTFDV	-0.45 / -0.98 / -0.36 / -0.46 / -1.12 / -0.02	-0.56	0/18
GFDLEDYGIS	VIYADGMRTAYADSVK	GENAGTFDI	0.91 / 1.10 / 0.48 / 0.35 / 0.62 / 0.48	0.66	0/18
GFDLDEYGIS	VIYADGQRTAYADSVK	GTNAGTFDV	-0.51 / -0.49 / -0.54 / -0.64 / -0.53 / -0.12	-0.47	0/18
GFDLNEYGIS	VIYADGSRTAYSDSVK	GENAGTFDQ	-0.08 / 0.07 / -0.11 / -0.26 / -0.24 / 0.10	-0.09	1/18 (1.42)
GFDLDEYGIS	VIYADGRRTAYSDSVK	GEVAGTFDL	-0.22 / -0.65 / -0.29 / -0.69 / -0.59 / -0.52	-0.49	0/18
GFSLDEYGIS	VIYADGMRTAYADSVK	GNVAGTFDV	-0.28 / -0.58 / -0.78 / -0.21 / -0.62 / -0.52	-0.50	0/18
GFDLDEYGIS	VIYADGQRTAYADSVK	GNTAGTFDL	-0.61 / -0.25 / -0.41 / -0.16 / -0.40 / -0.51	-0.39	0/18
GFDLNEYGIS	VIYADGRRTAYSDSVK	GNVAGTFDT	0.29 / -0.46 / -0.77 / -1.03 / -0.63 / 0.20	-0.40	0/18
GFDLDEYGIS	VIYADGMRTAYSDSVK	GTNAGTFDL	-0.10 / -0.63 / -0.56 / -0.56 / -0.43 / -0.20	-0.41	0/18

Extract of 6 entries:

| CDR-H1 | CDR-H2 | CDR-H3 | replicates, log10 nM | mean log10 Kd (nM) | empty controls |
|---|---|---|---|---|---|
| GFDLNEYGIS | VIYADGMRSAYADSVK | GTNAGTFDV | -0.56 / -0.68 / -1.04 / -0.90 / -1.00 / -0.92 | -0.85 | 0/18 |
| GFDLDEYGIS | VIYADGMRKAYADSVK | GEVAGTFDV | 0.55 / 1.39 / n.d. / 1.30 / 1.21 / n.d. | 1.11 | 0/18 |
| GFDLDEYGIS | VIYADGRRTAYSDSVK | GEVAGTFDL | -0.22 / -0.65 / -0.29 / -0.69 / -0.59 / -0.52 | -0.49 | 0/18 |
| GFDLDEYGIS | VIYADGMRTAYSDSVK | GNQAGTFDM | -0.24 / -0.27 / -0.94 / 0.15 / -0.48 / -0.62 | -0.40 | 0/18 |
| GFDLDEYGIS | VIYADGMRTAYSDSVK | GENAGTFDT | -0.31 / 0.04 / -0.31 / -0.98 / -0.99 / -0.42 | -0.49 | 0/18 |
| GFDLNEYGIS | VIYADGMRTAYADNVK | GEVAGTFDT | -0.63 / -0.46 / -0.59 / -0.56 / -0.87 / -0.44 | -0.59 | 0/18 |

The range of this assay differs from that of the first round, and the authors advise against merging the two.
The authors averaged sequences with at least three values out of six and counted those with two or fewer as poor binders.
The parent sequence was in this pool as ten entries: three were never detected, three once, and four in most replicates, with averages from 0.34 to 2.37.